{
  "source": "patent US10544130B2",
  "about": "“Metallo-beta-lactamase inhibitors” (priority 2015, dated 2020)",
  "tested_on": "Pseudomonas aeruginosa PAO1 MB9798 (efflux+, IMP-1)",
  "settings": "ratio MITC95 PA 9798/MITC95 PA 9799; imipenem at 2 μg/mL",
  "data": [
    {"compound": "Nc1nc2c(-c3ccc(S(=O)(=O)N[C@H]4C[C@H](N)C4)c(S(N)(=O)=O)c3-c3nnn[nH]3)cccc2s1", "note": "[Example 71, 4-(2-amino-1,3-benzothiazol-4-yl)-N^1-(trans-3-aminocyclobutyl)-3-(1H-tetrazol-5-yl)benzene-1,2-disulfonamide]", "values": [
      {"measurement": "Efflux ratio", "value": 1.00}
    ]}
  ]
}
